Amino acid sequences for entries named in this document (tags omitted). Residues count along the entry.
UniProt P04150, 524-777 limits assumed: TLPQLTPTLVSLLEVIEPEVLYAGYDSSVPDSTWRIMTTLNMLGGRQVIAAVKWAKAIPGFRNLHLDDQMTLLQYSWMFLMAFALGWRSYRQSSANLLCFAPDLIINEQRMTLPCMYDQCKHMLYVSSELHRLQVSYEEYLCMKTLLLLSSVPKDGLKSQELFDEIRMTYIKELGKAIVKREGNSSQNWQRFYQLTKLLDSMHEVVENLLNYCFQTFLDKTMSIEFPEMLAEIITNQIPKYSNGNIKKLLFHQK

In patent publication US20240218011A1, “GLUCOCORTICOID RECEPTOR AGONISTS AND CONJUGATES THEREOF” (FireFly Bio, Inc., priority 2022, published 2024):

Biological target: Glucocorticoid Receptor (GR) (Homo sapiens, UniProt P04150)
Assay: GR reporter assay (GR-GAL4 Reporter (Luc)-HEK293 cells, Steady-Glo luciferase)
Assay type: cell-based
Conditions: read-out: GR reporter agonist, 24 hours

C[C@]12C=CC(=O)C=C1CC[C@@H]1[C@@H]2[C@@H](O)C[C@@]2(C)[C@H]1C[C@H]1O[C@@H](c3ccccc3)O[C@]12C(=O)CO
EC50: 2.8 nM
